Tests used:
[1] = target: full-length SARS-CoV-2 HA-Nsp3 (Severe acute respiratory syndrome coronavirus 2 (2019-nCoV) (SARS-CoV-2), UniProt P0DTD1); test: biochemical
SARS-CoV-2 PLpro = SARS-CoV-2 PLpro (Severe acute respiratory syndrome coronavirus 2, UniProt P0DTD1); test: biochemical

**Q.** `COC(=O)/C=C/C(=O)NNC(=O)CCc1ccccc1C(=O)N[C@H](C)c1cccc2ccccc12` [Compound 7, methyl(R,E)-4-(2-(3-(2-((1-(naphthalen-1 yl)ethyl)carbamoyl)-phenyl)propanoyl)hydrazineyl)-4-oxobut-2-enoate] was tested. Which IC50 [1] did it give?
**A.** 0.038 µM

**Q.** And the IC50 (SARS-CoV-2 PLpro)?
**A.** 0.039 µM

Reference: patent US12234202B2, “Covalent inhibitors of coronavirus papain-like protease” (UT-Battelle, LLC, priority 2021, dated 2025)
